The test system of experiment [1] is FME. Nature of the experiment: Hypersensitivity factor is the ratio of IC50 for AA8/IC50 for FME cell line. To be noted: Homo sapiens.
For experiment [2], the system named is EMT6. Nature of the experiment: Hypersensitivity factor is the ratio of IC50 for AA8/IC50 for EMT6 cell line. Conditions: Mus musculus.
Experiment [3] concerns UV4. Put plainly: Hypersensitivity factor is the ratio of IC50 for AA8/IC50 for UV4 cell line. Conditions: Cricetulus griseus.
In experiment [4] the test system is EMT6. Put plainly: Concentration to reduce EMT cell survival under hypoxic conditions (3h drug exposure) by clonogenic assay. Conditions: Mus musculus.
Experiment [5] has as its system EMT6. Put plainly: Ratio of aerobic C10 to that of hypoxic C10 for EMT cells. To be noted: Mus musculus.

In the case of `COc1ccc(C[N+](C)(CCCl)CCCl)c([N+](=O)[O-])c1`, the values for the Hypersensitivity factor in experiment [1], in experiment [2] and in experiment [3] were 27, 54 and 435, respectively. The same compound showed a C10 in experiment [4] of 6.7 mM·h. Further, the Ratio in experiment [5] turned out to be 3000.
As for `CC(Cl)C[N+](C)(Cc1ccccc1[N+](=O)[O-])CC(C)Cl` (stereo not given), the Hypersensitivity factor in experiment [1] was determined as 118; in experiment [2] it was 11; in experiment [3], 2.6. In addition, in experiment [4], the C10 stood at 10 mM·h. In experiment [5], the Ratio was greater than 5.6.
For `Cc1ccc([N+](=O)[O-])c(C[N+](C)(CCCl)CCCl)c1`, in that order: 19, 68, 200, 0.13 mM·h and 10.
Take `COc1ccc([N+](=O)[O-])c(C[N+](C)(CCCl)CCCl)c1`: the Hypersensitivity factor is 26 in experiment [1], 45 in experiment [2] and 300 in experiment [3]. The same compound displayed a C10 in experiment [4] of 2.9 mM·h. In addition, the Ratio in experiment [5] is 500.
The matching figures for `C[N+](CCBr)(CCBr)Cc1ccccc1[N+](=O)[O-]`: 56, 17, 17, 13 mM·h and greater than 200.

(Values after ChEMBL document CHEMBL1129509, “Hypoxia-selective antitumor agents. 12. Nitrobenzyl quaternary salts as bioreductive prodrugs of the alkylating agent mechlorethamine” (1996).)
